How the values were obtained:
[1] = target: recombinant rat GluN1/GluN2D (Rattus norvegicus, UniProt Q62645); experiment: Two-electrode voltage-clamp (TEVC) recordings in Xenopus laevis oocytes, GluN1/GluN2D; format: cell-based
[2] = target: recombinant rat GluN1/GluN2C (Rattus norvegicus, UniProt Q00961); experiment: Two-electrode voltage-clamp (TEVC) recordings in Xenopus laevis oocytes, GluN1/GluN2C; format: cell-based

Sequences of proteins named here, by UniProt entry; tags and fusion partners are left off. Residues count along the entry.
UniProt Q62645, 28-1323 limits assumed: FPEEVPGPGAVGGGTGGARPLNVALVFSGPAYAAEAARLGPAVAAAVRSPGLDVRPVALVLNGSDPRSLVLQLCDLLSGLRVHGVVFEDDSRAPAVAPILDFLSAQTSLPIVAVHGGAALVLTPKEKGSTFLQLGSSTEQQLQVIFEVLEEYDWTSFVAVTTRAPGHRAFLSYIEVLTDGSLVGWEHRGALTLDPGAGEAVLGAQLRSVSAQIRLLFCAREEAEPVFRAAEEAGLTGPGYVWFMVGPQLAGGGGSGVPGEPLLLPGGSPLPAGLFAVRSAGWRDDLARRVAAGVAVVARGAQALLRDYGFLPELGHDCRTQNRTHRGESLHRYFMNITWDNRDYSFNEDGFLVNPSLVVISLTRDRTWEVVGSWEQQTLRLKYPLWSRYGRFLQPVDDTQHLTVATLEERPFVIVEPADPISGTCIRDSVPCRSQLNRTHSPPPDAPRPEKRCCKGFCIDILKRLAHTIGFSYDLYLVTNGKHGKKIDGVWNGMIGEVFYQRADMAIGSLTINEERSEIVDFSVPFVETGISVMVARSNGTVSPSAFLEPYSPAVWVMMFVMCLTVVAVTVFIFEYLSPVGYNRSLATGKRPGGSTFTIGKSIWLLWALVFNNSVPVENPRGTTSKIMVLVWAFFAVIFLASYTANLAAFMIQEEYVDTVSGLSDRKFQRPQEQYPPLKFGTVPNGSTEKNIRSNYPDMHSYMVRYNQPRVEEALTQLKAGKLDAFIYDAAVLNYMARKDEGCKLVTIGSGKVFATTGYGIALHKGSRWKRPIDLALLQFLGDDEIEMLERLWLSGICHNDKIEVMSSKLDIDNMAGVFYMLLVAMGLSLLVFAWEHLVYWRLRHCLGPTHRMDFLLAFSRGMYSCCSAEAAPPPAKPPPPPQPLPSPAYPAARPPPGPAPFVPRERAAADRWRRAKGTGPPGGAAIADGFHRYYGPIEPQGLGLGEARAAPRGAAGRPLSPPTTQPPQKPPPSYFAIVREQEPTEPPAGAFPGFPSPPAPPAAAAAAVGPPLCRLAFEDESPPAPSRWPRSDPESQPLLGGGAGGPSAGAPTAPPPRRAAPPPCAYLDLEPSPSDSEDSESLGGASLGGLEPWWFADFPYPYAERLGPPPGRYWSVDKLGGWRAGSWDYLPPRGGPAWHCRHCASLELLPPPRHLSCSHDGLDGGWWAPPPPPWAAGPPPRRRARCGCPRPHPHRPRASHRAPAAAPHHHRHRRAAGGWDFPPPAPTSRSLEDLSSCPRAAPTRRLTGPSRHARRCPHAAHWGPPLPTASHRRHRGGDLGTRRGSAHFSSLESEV
UniProt Q00961, 20-1237 limits assumed: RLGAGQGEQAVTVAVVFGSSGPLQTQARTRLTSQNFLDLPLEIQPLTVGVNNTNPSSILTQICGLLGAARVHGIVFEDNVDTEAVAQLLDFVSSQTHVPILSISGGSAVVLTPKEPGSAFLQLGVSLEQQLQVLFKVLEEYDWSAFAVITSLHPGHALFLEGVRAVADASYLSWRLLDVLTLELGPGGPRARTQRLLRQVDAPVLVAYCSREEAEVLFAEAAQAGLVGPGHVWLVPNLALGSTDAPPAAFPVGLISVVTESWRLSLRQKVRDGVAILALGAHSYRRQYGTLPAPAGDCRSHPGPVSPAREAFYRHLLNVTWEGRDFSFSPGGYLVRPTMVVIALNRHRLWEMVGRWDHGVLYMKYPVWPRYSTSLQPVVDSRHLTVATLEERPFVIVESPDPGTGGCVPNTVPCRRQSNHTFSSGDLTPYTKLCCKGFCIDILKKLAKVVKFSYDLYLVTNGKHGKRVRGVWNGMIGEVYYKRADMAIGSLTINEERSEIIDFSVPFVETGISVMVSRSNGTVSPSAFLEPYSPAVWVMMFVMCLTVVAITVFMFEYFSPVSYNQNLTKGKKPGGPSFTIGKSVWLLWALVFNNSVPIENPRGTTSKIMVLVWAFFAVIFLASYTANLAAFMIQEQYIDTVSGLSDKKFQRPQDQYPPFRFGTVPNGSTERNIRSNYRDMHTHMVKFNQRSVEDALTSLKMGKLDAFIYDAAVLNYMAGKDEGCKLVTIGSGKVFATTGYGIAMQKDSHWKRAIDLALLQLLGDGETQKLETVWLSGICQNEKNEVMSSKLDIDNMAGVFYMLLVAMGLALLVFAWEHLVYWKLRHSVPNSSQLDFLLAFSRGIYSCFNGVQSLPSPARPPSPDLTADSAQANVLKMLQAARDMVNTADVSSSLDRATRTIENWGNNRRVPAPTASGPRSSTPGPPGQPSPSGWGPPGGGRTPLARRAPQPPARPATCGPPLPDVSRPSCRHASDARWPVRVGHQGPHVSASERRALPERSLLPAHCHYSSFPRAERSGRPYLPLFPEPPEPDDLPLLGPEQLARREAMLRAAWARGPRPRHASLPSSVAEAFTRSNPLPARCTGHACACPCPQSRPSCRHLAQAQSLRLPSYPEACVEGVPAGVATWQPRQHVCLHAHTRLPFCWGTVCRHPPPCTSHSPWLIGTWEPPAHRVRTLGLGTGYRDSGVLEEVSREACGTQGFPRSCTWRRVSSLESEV

Compound: COc1ccc(OCC2c3ccc(OCCc4ccccc4)cc3CCN2C(=O)c2cccc(Cl)c2)cc1 (stereo not shown)
- EC50 & Max Effect: 2D Max (%) [1]: 216%
- EC50 ([1]; read-out: EC50 & Max Effect: 2D): 160 nM
- EC50 & Max Effect: 2C Max (%) [2]: 250%
- EC50 ([2]; read-out: EC50 & Max Effect: 2C): 220 nM
